# Target: mMC4R (Mus musculus, UniProt P56450)
# Chains of the proteins cited; added tags and fusions are not shown.
# UniProt P56450, whole entry: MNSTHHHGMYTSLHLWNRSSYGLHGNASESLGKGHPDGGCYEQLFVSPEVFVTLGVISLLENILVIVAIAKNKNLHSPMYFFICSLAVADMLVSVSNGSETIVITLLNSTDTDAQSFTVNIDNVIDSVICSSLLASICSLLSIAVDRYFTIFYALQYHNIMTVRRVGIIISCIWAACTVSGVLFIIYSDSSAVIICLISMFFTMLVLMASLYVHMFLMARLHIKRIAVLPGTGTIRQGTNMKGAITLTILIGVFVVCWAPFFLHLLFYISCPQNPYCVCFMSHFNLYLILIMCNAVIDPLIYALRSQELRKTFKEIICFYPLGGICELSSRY
smiles,measurement,value
"C[C@@H]1NC(=O)[C@H](CN)NC(=O)[C@H](Cc2ccccc2)NC(=O)[C@H](Cc2ccccc2)NC(=O)[C@H](CCCNC(=N)N)NC(=O)[C@@H]2CCCN2C(=O)[C@H]2CCCN2C(=O)[C@H](Cc2ccccc2)NC1=O [Compound 5, c[Pro-Arg-Phe-Phe-Dap-Ala-Phe-DPro]]",Kb,1.26 nM
